# Experimental data as given in paper PMC8511083 (European journal of medicinal chemistry, 2021).
# Assays:
# [1] = system: OVCAR8 orthotopic ovarian tumors; experiment: Orthotopic OVCAR8 ovarian cancer mouse model; type: in vivo; details: ex vivo, endpoint, vs vehicle
# [2] = system: OVCAR3 and OVCAR8 cells; experiment: Average growth inhibition in ovarian cancer cell lines; type: cell-based; details: Homo sapiens, read-out: Average IC50
# [3] = system: panel of melanoma and breast cancer cell lines; experiment: Average growth inhibition in panel of melanoma and breast cancer cell lines; type: cell-based; details: Homo sapiens, read-out: Average IC50
compound,measurement,setting,value
"Oc1c(CN2CCCCC2)cc(Cn2ncc(-c3ccc(C(F)(F)F)cc3)n2)c2cccnc12 [Compound 12b, 7-(piperidin-1-ylmethyl)-5-((4-(4-(trifluoromethyl)phenyl)-2H-1,2,3-triazol-2-yl)methyl)quinolin-8-ol]",luciferase activity (photon flux) of the excised ovaries,[1],remarkable decrease in luciferase activity
same,IC50,[2],1.1 µM
same,IC50,[3],1.7 µM
